For two molecules, tissue uptake and Kd results are on record in patent US10696631B2, “Chemical conjugates of evans blue derivatives and their use as radiotherapy and imaging agents” (priority 2016, dated 2020).

Sequences of proteins named here, by UniProt entry; tags and fusion partners are left off. Residues count along the entry.
UniProt P02768, 25-609: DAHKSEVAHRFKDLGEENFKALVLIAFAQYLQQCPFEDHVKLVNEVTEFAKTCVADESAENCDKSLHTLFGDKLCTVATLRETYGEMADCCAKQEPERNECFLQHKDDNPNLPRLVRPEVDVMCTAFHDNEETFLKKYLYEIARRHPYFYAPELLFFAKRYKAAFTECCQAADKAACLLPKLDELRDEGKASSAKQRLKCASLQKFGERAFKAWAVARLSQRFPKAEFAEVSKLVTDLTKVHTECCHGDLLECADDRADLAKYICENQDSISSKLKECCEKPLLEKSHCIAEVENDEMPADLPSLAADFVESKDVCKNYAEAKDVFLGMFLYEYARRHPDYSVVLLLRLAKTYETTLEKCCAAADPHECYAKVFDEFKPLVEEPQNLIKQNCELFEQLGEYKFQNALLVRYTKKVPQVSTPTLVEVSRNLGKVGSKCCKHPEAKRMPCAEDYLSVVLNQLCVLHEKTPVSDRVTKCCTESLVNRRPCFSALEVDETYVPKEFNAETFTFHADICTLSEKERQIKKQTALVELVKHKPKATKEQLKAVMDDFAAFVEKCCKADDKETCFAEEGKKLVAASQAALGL

Data set [1] can be described thus: MicroPET imaging and biodistribution in U87MG xenografts. The conditions noted are these: female, athymic nude, mouse, in vivo.
Another data set concerns the target albumin (Homo sapiens, UniProt P02768). The conditions noted are these: read-out: published binding affinity to albumin; cited from earlier work.

For `Cc1cc(-c2ccc(NC(=O)[C@@H](CCCCNC(=O)CCN3C(=O)CC(SCC(=O)NCCCC[C@H]4NC(=O)[C@H](Cc5ccc(O)cc5)NC(=O)[C@H](CC(=O)O)NC(=O)C(C)NC(=O)[C@H](CCCNC(=N)N)NC4=O)C3=O)NC(=O)CN3CCN(CC(=O)O)CCN(CC(=O)O)CC3)c(C)c2)ccc1/N=N/c1ccc2c(S(=O)(=O)O)cc(S(=O)(=O)O)c(N)c2c1O` (stereo partly shown) [64Cu-NMEB-RAD, metal not drawn, reference compound], the tissue uptake in data set [1] (tumor accumulation, U87MG xenografts, all time points) is roughly 6 %ID/g; in data set [1] (uptake in the blood, up to 4 h p.i.) it was 10 to 12 %ID/g. This molecule also registered a tissue uptake at 24 h in data set [1] (uptake in the blood, 24 h p.i.) of 3.7 ± 0.3 %ID/g.

On to `Cc1cc(-c2ccc(/N=N/c3ccc4c(S(=O)(=O)O)cc(S(=O)(=O)O)c(N)c4c3O)c(C)c2)ccc1/N=N/c1ccc2c(S(=O)(=O)O)cc(S(=O)(=O)O)c(N)c2c1O` [Evans Blue], for which the Kd at albumin is roughly 2500 nM.

By tissue uptake is commonly meant the share of the injected amount in each gram of the tissue. Low values mean low uptake, high ones high uptake.
